These are literature values, as cited in patent US20040236125A1, “Novel structures and compositions comprising sterols and/or stanols and specific classes of anti-inflammatory agents and use thereof in treating or preventing cardiovascular disease, its underlying conditions including hyperlipidemia and other disorders having inflammation as part of their …” (FORBES MEDI-TECH INC., priority 2002, published 2004).

Chains of the proteins cited; added tags and fusions are not shown. Residues count along the entry.
UniProt P79208, 17-603: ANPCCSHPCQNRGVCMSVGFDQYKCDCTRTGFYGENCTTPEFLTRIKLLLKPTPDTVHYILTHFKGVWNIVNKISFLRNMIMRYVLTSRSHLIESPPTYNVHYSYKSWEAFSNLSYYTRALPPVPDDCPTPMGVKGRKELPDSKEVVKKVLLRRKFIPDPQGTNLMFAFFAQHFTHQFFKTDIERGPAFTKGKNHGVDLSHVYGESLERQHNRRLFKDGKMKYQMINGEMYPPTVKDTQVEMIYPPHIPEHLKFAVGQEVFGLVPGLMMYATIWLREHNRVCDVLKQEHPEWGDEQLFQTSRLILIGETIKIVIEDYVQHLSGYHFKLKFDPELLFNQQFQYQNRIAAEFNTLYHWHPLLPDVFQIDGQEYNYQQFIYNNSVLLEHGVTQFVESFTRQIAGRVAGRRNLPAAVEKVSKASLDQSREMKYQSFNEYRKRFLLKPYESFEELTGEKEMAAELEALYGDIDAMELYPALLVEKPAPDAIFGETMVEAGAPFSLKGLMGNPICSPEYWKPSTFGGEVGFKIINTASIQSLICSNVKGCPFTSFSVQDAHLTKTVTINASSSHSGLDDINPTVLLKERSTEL

The target of this data set is COX-2 (Ovis aries, UniProt P79208). The conditions noted are these: read-out: IC50 (inhibitor of COX-2); reference inhibitor, FIG. 5 legend; cited from earlier work.

pIC50: −log10 of the molar value.

For `CS(=O)(=O)c1ccc(-c2cc(Br)sc2-c2ccc(F)cc2)cc1` [DuP-697], the pIC50 is 7.30.

A word on the pIC50: it is −log10 of the IC50, conventionally taken in molar units.
